Assay: Distribution coefficients of ABE mixtures between DME and aqueous phase in agitated pressure vessel, HPLC
Format: physicochemical
Conditions: 30° C.
Description: The compositions of the aqueous mixtures were based on concentrations typically produced in a cellulosic fermentation.
Mixtures were charged to a pressure vessel and agitated to provide adequate contacting between the aqueous and solvent (DME) phases. Heat tape was used to control the temperature of the liquid that was measured by thermocouples. Pressure and temperature measurements were taken every five minutes. After temperature and pressure stabilization agitation was ceased and the liquid phases were allowed to fully settle.
A mass balance was also performed on each component of the ABE and BE mixtures to determine a degree of accuracy of the results.

## n-butanol
  distribution coefficient (slope of line fit): 2.83

Reference: patent publication US9630894B2, “Energy efficient method and apparatus for the extraction of biomolecules from dilute aqueous solution” (DYNASEP INC., priority 2012, dated 2017)
